Laboratory results reported in US6583179B2, “Substituted aminoalkylamide derivatives as antagonists of follicle stimulating hormone” (Ortho-McNeil Pharmaceutical, Inc., priority 1999, dated 2003).

Sequences of proteins named here, by UniProt entry; tags and fusion partners are left off. Residues count along the entry.
UniProt P23945, 18-695 limits assumed: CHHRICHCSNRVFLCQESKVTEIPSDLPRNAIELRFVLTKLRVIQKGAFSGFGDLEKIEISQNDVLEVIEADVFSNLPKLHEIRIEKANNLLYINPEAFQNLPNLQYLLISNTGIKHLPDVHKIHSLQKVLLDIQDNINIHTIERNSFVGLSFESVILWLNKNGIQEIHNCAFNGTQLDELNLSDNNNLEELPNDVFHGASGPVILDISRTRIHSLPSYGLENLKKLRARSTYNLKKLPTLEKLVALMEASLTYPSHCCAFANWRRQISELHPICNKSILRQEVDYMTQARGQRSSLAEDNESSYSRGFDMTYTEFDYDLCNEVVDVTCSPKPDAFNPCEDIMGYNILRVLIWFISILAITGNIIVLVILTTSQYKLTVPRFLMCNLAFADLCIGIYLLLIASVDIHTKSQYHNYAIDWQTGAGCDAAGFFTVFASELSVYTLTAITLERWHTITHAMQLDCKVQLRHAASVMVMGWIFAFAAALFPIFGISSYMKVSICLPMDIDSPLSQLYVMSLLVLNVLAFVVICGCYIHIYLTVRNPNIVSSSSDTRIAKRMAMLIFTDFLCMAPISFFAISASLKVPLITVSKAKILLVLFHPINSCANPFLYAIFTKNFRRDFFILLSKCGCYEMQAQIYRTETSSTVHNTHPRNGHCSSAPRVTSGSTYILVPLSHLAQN

Key:
Rat Granulosa Cell = assay: Rat granulosa cell FSH-stimulated cAMP production; conditions: read-out: Rat Granulosa Cell EC50 cAMP; inhibition of cAMP produced by EC70 dose of FSH (1.4 nM); maximum concentration 50 μM
Method: Insulin, diethylstilbesterol, androstenedione, forskolin and DMSO were purchased from Sigma (St. Louis, Mo.). Fungizone, penicillin/streptomycin, charcoal-treated heat inactivated fetal bovine serum (CT-HI-FBS) and Dulbecco's Modified Eagle Medium:Hams F12 medium containing 15 mM Hepes and L-glutamine (DMEM:F12), were purchased from GIBCO BRL (Grand Island, N.Y.).
Ovine FSH (NIADDK-oFSH-17; FSH potency=20 NIH-FSH-S1 U/mg; LH contamination=0.04 times NIH-LH-S1) was received from Ogden Bioservices Corporation, Rockville, Md. Human FSH (Fertinex), was purchased from Serono Pharmaceutical (Framingham, Mass.). Human chorionic gonadotropin (hCG) was purchased from Sigma (St Louis, Mo.).
Immature intact female rats (Wistar-derived strain; 21-23 days old) were implanted with a single pellet (Innovative Research of America, Sarasota, Fla.) containing 2.5 mg diethylstilbesterol (DES) for 3 days. On the third day, the animals were sacrificed, the ovaries were removed, and the granulosa cells were isolated essentially as described in Haynes-Johnson et al., Biol. Reprod., 61 (1), 147-153, (1999). Granulosa cells were plated at a density of 300,000 cells per ml with 0.2 ml added to each well of 96 well culture dishes (Corning, N.Y.). Cultures were incubated at 37° C. in a humidified incubator (95% air, 5% CO2) overnight (18 hours).
Androstenedione (100,000X) was prepared by dissolving the steroid in 100% ethanol, and was subsequently diluted to a final concentration of 10^−7M containing 0.1% ethanol in assay media. The assay media was serum-free, DES-free, insulin-free media, prepared by adding 5 mL pen-strep,1.5 mL fungizone and 5 μL androstenedione to 493.5 mL DMEM F-12 media.
Test compounds were solubilized in 30% dimethyl sulfoxide (DMSO) at a concentration of 10 mM before diluting to appropriate concentrations in assay medium. The final DMSO concentration in the treated cells and in the control cells was 0.75%.
Test plates containing the granulosa cells were preincubated for 18 hours at 37° C. with 95% air, 5% CO2, 100% humidity. The spent media was removed and 50 μl assay media (DMEM:F12) containing 2 mM IBMX (3-isobutyl-1-methyl-xanthine) was added to the cells. Compounds (25 μl) in the appropriate concentration were added followed 5 minutes later by an EC70 dose of FSH (25 μl; 50 ng/ml; 1.4 nM). After 30 minutes @ 22.5° C. (room temperature) the reaction was terminated by addition of 25 μL 0.5 N hydrochloric acid to each well. The amount of cAMP produced was measured by radioimmunoassay in a FlashPlate (DuPont, Boston, Mass.). To each flash plate 60 μL flash plate buffer was added followed by 40 μL acidified cell sample or cAMP standard, followed with the addition of 100 μl ^125l-cAMP trace. The FlashPlates were sealed, incubated overnight @ room temperature, and counted in a Packard TopCount (Packard Instrument Co., Meriden, Conn.). The cAMP radioimmunoassay results were calculated using DPM conversion and log-logit transformation of % binding (Excel program).

human FSH receptor = human FSH receptor (Homo sapiens, UniProt P23945); assay: hFSHR CHO cAMP assay (rhFSHR-cLUC cells, FSH-stimulated cAMP, radioimmunoassay); conditions: read-out: EC50 hFSHR CHO cAMP; inhibition of cAMP produced by EC70 dose of FSH (4.85 nM); maximum concentration 50 μM

Row | SMILES | EC50 (Rat Granulosa Cell) | EC50 (human FSH receptor)
1 | COc1cccc(-c2ccc(S(=O)(=O)N(CCc3ccccc3OC)CC(=O)N[C@H]3CC[C@H](N)CC3)cc2)c1 | 8630 nM | 10200 nM
2 | COc1ccccc1CCN(CC(=O)N[C@H]1CC[C@H](N)CC1)S(=O)(=O)c1ccc(-c2ccc(Cl)cc2)cc1 | 1900 nM | 9700 nM
3 | COc1ccccc1CN(CC(=O)NCC1CCC(CN)CC1)S(=O)(=O)c1ccc(C)cc1 (stereo not shown) | 12500 nM | ≥ 50000 nM
4 | COc1ccccc1CN(CC(=O)NCC1CCC(CN)CC1)S(=O)(=O)c1ccc2ccccc2c1 (stereo not shown) | 2850 nM | 3920 nM
5 | COc1ccccc1CN(CC(=O)NCC1CCC(CN)CC1)S(=O)(=O)c1ccccc1Cl (stereo not shown) | 6370 nM | 28800 nM
6 | COc1ccccc1CCN(CC(=O)NCc1ccc(CN)cc1)S(=O)(=O)c1cccc2ccccc12 | 1290 nM | 2110 nM
7 | COc1ccccc1CCN(CC(=O)NCc1ccc(CN)cc1)S(=O)(=O)c1cccc(-c2ccccc2F)c1 | 1650 nM | 1640 nM
8 | COc1ccc(S(=O)(=O)N(CC(=O)NCC2CCC(CN)CC2)Cc2ccccc2OC)cc1 (stereo not shown) | 5160 nM | 23300 nM
9 | COc1ccccc1CN(CC(=O)NCC1CCC(CN)CC1)S(=O)(=O)c1ccc(-c2ccc(Cl)cc2)cc1 (stereo not shown) | 2420 nM | 1160 nM
10 | COc1ccccc1CCN(CC(=O)NCc1ccc(CN)cc1)S(=O)(=O)c1c(Cl)cccc1Cl | 10000 nM | 4030 nM
11 | COc1ccccc1CCN(CC(=O)N[C@H]1CC[C@H](N)CC1)S(=O)(=O)c1ccc(-c2ccc(C#N)cc2)cc1 | 4890 nM | 10800 nM
12 | COc1ccc(OC)c(S(=O)(=O)N(CC(=O)NCC2CCC(CN)CC2)Cc2ccccc2OC)c1 (stereo not shown) | 29400 nM | 40000 nM
13 | COc1ccccc1CCN(CC(=O)N[C@H]1CC[C@H](N)CC1)S(=O)(=O)c1ccc(-c2c(C)noc2C)cc1 | 1450 nM | 5500 nM
14 | COc1ccccc1CCN(CC(=O)NCc1ccc(CN)cc1)S(=O)(=O)c1ccc(-c2ccc(F)cc2)s1 | 2150 nM | 1600 nM
15 | COc1ccccc1CN(CC(=O)NCC1CCC(CN)CC1)S(=O)(=O)c1cccc([N+](=O)[O-])c1 (stereo not shown) | 3700 nM | 33600 nM
16 | COc1ccccc1CCN(CC(=O)NCc1ccc(CN)cc1)S(=O)(=O)c1cccc([N+](=O)[O-])c1 | 1440 nM | 1020 nM
17 | COc1ccc(S(=O)(=O)N(CC(=O)NCC2CCC(CN)CC2)Cc2ccccc2OC)c([N+](=O)[O-])c1 (stereo not shown) | 4580 nM | 12700 nM
18 | COc1ccccc1CN(CC(=O)NCC1CCC(CN)CC1)S(=O)(=O)c1ccccc1F (stereo not shown) | 5010 nM | 18800 nM
19 | COc1ccccc1CN(CC(=O)NCC1CCC(CN)CC1)S(=O)(=O)c1ccc(I)cc1 (stereo not shown) | 1460 nM | 38500 nM
20 | COc1cccc(CN(CC(=O)NCC2CCC(CN)CC2)S(=O)(=O)c2ccc(-c3ccc(C)cc3)cc2)c1 (stereo not shown) | 1330 nM | 1410 nM
21 | COc1ccccc1CCN(CC(=O)NCc1ccc(CN)cc1)S(=O)(=O)c1ccccc1Cl | 1630 nM | 1500 nM
22 | COc1ccccc1CCN(CC(=O)NCc1ccc(CN)cc1)S(=O)(=O)c1ccc(-c2cccc([N+](=O)[O-])c2)cc1 | 1390 nM | 3710 nM
23 | COc1ccccc1CCN(CC(=O)N[C@H]1CC[C@H](N)CC1)S(=O)(=O)c1ccc(-c2cccs2)cc1 | 32900 nM | 9540 nM
24 | COc1ccccc1CN(CC(=O)NCC1CCC(CN)CC1)S(=O)(=O)c1cccc2ccccc12 (stereo not shown) | 1920 nM | 19500 nM
25 | COc1ccccc1CN(CC(=O)NCC1CCC(CN)CC1)S(=O)(=O)c1ccc(Cl)cc1Cl (stereo not shown) | 2060 nM | 31300 nM
26 | COc1ccccc1CCN(CC(=O)NCc1ccc(CN)cc1)S(=O)(=O)c1ccc2ccccc2c1 | 2950 nM | 540 nM
27 | COc1ccccc1CCN(CC(=O)N[C@H]1CC[C@H](N)CC1)S(=O)(=O)c1ccc(-c2ccco2)cc1 | 3160 nM | 4760 nM
28 | COc1ccccc1CCN(CC(=O)NCc1ccc(CN)cc1)S(=O)(=O)c1ccc(-c2ccc(F)c(Cl)c2)cc1 | 1670 nM | 3370 nM

Further lines, results first:

Row | EC50 (Rat Granulosa Cell) | EC50 (human FSH receptor) | SMILES
29 | 50 nM | 150 nM | C[C@H](CN(CC(=O)NCc1ccc(CN)cc1)S(=O)(=O)c1ccc(-c2ccc(F)cc2)cc1)c1ccccc1
30 | 290 nM | 650 nM | COc1ccccc1CN(CC(=O)NCC1CCC(CN)CC1)S(=O)(=O)c1ccc(-c2ccccc2C)cc1 (stereo not shown)
31 | 1200 nM | 26200 nM | COc1ccccc1CN(CC(=O)NCC1CCC(CN)CC1)S(=O)(=O)c1c(Cl)cccc1Cl (stereo not shown)
32 | 170 nM | 310 nM | COc1ccccc1CCN(CC(=O)NCC1CCC(CN)CC1)S(=O)(=O)c1ccc(-c2ccc(Cl)cc2Cl)cc1 (stereo not shown)
33 | 1160 nM | 3630 nM | COc1ccccc1CCN(CC(=O)NCc1ccc(CN)cc1)S(=O)(=O)c1cccc(Cl)c1
34 | 340 nM | 930 nM | COc1ccccc1CN(CC(=O)NCC1CCC(CN)CC1)S(=O)(=O)c1ccc(-c2cccc(C(F)(F)F)c2)cc1 (stereo not shown)
35 | 270 nM | 960 nM | COc1ccccc1CN(CC(=O)NCC1CCC(CN)CC1)S(=O)(=O)c1ccc(-c2ccccc2OC)cc1 (stereo not shown)
36 | 90 nM | 340 nM | C[C@H](CN(CC(=O)NCC1CCC(CN)CC1)S(=O)(=O)c1ccc(-c2cccc(F)c2)cc1)c1ccccc1 (stereo partly shown)
37 | 280 nM | 670 nM | COc1ccccc1CCN(CC(=O)NCC1CCC(CN)CC1)S(=O)(=O)c1ccc(-c2ccc(F)cc2)cc1 (stereo not shown)
38 | 80 nM | 130 nM | Cc1ccccc1-c1ccc(S(=O)(=O)N(CC(=O)NCC2CCC(CN)CC2)C[C@@H](C)c2ccccc2)cc1 (stereo partly shown)
39 | 490 nM | 660 nM | COc1ccccc1CCN(CC(=O)NCC1CCC(CN)CC1)S(=O)(=O)c1ccc(-c2cccc(Cl)c2)cc1 (stereo not shown)
40 | 490 nM | 570 nM | COc1ccccc1CCN(CC(=O)NCc1ccc(CN)cc1)S(=O)(=O)c1ccc(-c2ccc(F)cc2)cc1
41 | 1270 nM | 6760 nM | COc1ccccc1CN(CC(=O)NCC1CCC(CN)CC1)S(=O)(=O)c1ccc([N+](=O)[O-])cc1 (stereo not shown)
42 | 470 nM | 1060 nM | COc1ccc(-c2ccc(S(=O)(=O)N(CC(=O)NCC3CCC(CN)CC3)Cc3ccccc3OC)cc2)cc1 (stereo not shown)
43 | 1020 nM | 2920 nM | COc1ccccc1CCN(CC(=O)NCc1ccc(CN)cc1)S(=O)(=O)c1cccc(C(F)(F)F)c1
44 | 880 nM | 9880 nM | COc1ccccc1CN(CC(=O)NCC1CCC(CN)CC1)S(=O)(=O)c1cccc(Cl)c1 (stereo not shown)
45 | 850 nM | 5030 nM | COc1cccc(CN(CC(=O)NCC2CCC(CN)CC2)S(=O)(=O)c2ccc(-c3ccc(Cl)cc3Cl)cc2)c1 (stereo not shown)
46 | 110 nM | 1040 nM | COc1ccccc1CN(CC(=O)NCCCCCCN)S(=O)(=O)c1ccc(-c2ccccc2OC)cc1
47 | 470 nM | 1090 nM | COc1ccccc1CCN(CC(=O)NCc1ccc(CN)cc1)S(=O)(=O)c1ccc(-c2cccc3ccccc23)s1
48 | 150 nM | 210 nM | COc1ccc(-c2ccc(S(=O)(=O)N(CC(=O)NCc3ccc(CN)cc3)C[C@H](C)c3ccccc3)cc2)cc1 [202]
49 | 550 nM | 4370 nM | COc1ccccc1CN(CC(=O)NCC1CCC(CN)CC1)S(=O)(=O)c1ccc(Cl)cc1 (stereo not shown)
50 | 60 nM | 830 nM | C[C@@H](CN(CC(=O)NCc1ccc(CN)cc1)S(=O)(=O)c1ccc(-c2cccc(Cl)c2)cc1)c1ccccc1 [199]
51 | 1010 nM | 1110 nM | COc1ccccc1CCN(CC(=O)NCc1ccc(CN)cc1)S(=O)(=O)c1cc(Cl)ccc1Cl
52 | 830 nM | 1810 nM | COc1ccccc1CN(CC(=O)NCC1CCC(CN)CC1)S(=O)(=O)c1ccc(-c2cc(C(F)(F)F)cc(C(F)(F)F)c2)cc1 (stereo not shown)
53 | 50 nM | 220 nM | Cc1ccccc1-c1ccc(S(=O)(=O)N(CC(=O)NCc2ccc(CN)cc2)C[C@H](C)c2ccccc2)cc1 [205]
